According to patent publication US20040073295:

Biological target: human protein C (UniProt P04070)

Q: How did the Kcat (min^-1) of protein C activation; AcPC 0 %, POPC 100 % turn out when human thrombin-rabbit TM complex was run?
A: 29 min⁻¹

Q: What about the Kcat (min^-1) of protein C activation; AcPC 50 %, POPC 50 %, monomer (M) of the same substance?
A: 28 min⁻¹

Q: What about the Kcat (min^-1) of protein C activation; AcPC 50 %, POPC 50 %, polymer (P) of the same substance?
A: 18 min⁻¹

Q: What about the Kcat (min^-1) of protein C activation; AcPC 80 %, POPC 20 %, monomer (M) of the same substance?
A: 27 min⁻¹

Q: And the Kcat (min^-1) of protein C activation; AcPC 80 %, POPC 20 %, polymer (P)?
A: 18 min⁻¹

Q: And the Kcat (min^-1) of protein C activation; AcPC 100 %, POPC 0 %, monomer (M)?
A: 30 min⁻¹

Q: And the Kcat (min^-1) of protein C activation; AcPC 100 %, POPC 0 %, polymer (P)?
A: 24 min⁻¹

Q: What about the Kcat (min^-1) of protein C activation; no lipid (AcPC % -, POPC % -) of the same substance?
A: 39 min⁻¹

Q: What about the Km (µM) of protein C activation; AcPC 0 %, POPC 100 % of the same substance?
A: 1.3 µM

Q: What about the Km (µM) of protein C activation; AcPC 50 %, POPC 50 %, monomer (M) of the same substance?
A: 1 µM

Q: And the Km (µM) of protein C activation; AcPC 50 %, POPC 50 %, polymer (P)?
A: 2.1 µM

Q: What about the Km (µM) of protein C activation; AcPC 80 %, POPC 20 %, monomer (M) of the same substance?
A: 1.4 µM

Q: And the Km (µM) of protein C activation; AcPC 80 %, POPC 20 %, polymer (P)?
A: 3 µM

Q: What about the Km (µM) of protein C activation; AcPC 100 %, POPC 0 %, monomer (M) of the same substance?
A: 1.1 µM

Q: And the Km (µM) of protein C activation; AcPC 100 %, POPC 0 %, polymer (P)?
A: 3 µM

Q: And the Km (µM) of protein C activation; no lipid (AcPC % -, POPC % -)?
A: 4.2 µM

Q: What about the Km (µM); Free TM of the same substance?
A: 3.6 µM

Q: And the Km (µM); TM in AcPC vesicles?
A: 0.86 µM

Q: What about the Km (µM); TM in POPC vesicles of the same substance?
A: 0.66 µM

Q: And the Km (µM); TM in polymerized AcPC vesicles?
A: 4.5 µM

Q: What about the kcat (min^-1); Free TM of the same substance?
A: 7 min⁻¹

Q: And the kcat (min^-1); TM in AcPC vesicles?
A: 2.6 min⁻¹

Q: And the kcat (min^-1); TM in POPC vesicles?
A: 4.6 min⁻¹

Q: What about the kcat (min^-1); TM in polymerized AcPC vesicles of the same substance?
A: 5.7 min⁻¹

Q: What about the kcat/Km (min^-1· µM^-1); Free TM (min^-1· µM^-1) of the same substance?
A: 1.94

Q: What about the kcat/Km (min^-1· µM^-1); TM in AcPC vesicles (min^-1· µM^-1) of the same substance?
A: 3.02

Q: And the kcat/Km (min^-1· µM^-1); TM in POPC vesicles (min^-1· µM^-1)?
A: 6.97

Q: What about the kcat/Km (min^-1· µM^-1); TM in polymerized AcPC vesicles (min^-1· µM^-1) of the same substance?
A: 1.27
